Consider one compound from ChEMBL document CHEMBL1125213 (J Med Chem, 1991).

Chains of the proteins cited; added tags and fusions are not shown.
UniProt P25099, whole entry: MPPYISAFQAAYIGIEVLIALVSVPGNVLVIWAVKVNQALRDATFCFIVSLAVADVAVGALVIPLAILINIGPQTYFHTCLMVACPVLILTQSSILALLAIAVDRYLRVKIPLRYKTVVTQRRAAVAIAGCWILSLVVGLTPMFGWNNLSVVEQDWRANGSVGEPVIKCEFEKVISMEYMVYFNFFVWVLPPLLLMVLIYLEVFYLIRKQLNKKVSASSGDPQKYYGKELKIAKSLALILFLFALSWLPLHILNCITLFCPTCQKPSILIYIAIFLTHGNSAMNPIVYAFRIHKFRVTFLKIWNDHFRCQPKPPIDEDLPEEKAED

SMILES strings stand for the structures.

This assay has as its target Adenosine receptor A1 (Rattus norvegicus, UniProt P25099). The experiment in a line: Binding affinity against adenosine A1 receptor in rat cortex by using [3H]- PIA as a radioligand. It counts as tissue-based.

The compound `Nc1ncnc2c1ncn2C1CCCO1` (stereo unspecified) displayed a Ki of 28 µM.

In general, Ki refers to the equilibrium dissociation constant of an inhibitor or competing ligand from its target. High values mean a looser hold on the target, low ones a stronger hold on the target.
